For one test, the target named is PDGFR_beta (Homo sapiens, UniProt P09619). Kind of test: Activity against various protein tyrosine kinases: PDGFR_beta.
Another test has as its target AurB (Homo sapiens, UniProt Q96GD4). Kind of test: Activity against various protein tyrosine kinases: AurB. As to conditions: read-out: % Inhibition at 10 nM.
The next test has as its target PDGFR_alpha (Homo sapiens, UniProt P16234). Kind of test: Activity against various protein tyrosine kinases: PDGFR_alpha. As to conditions: read-out: % Inhibition at 1 μM.
The next test concerns the target MSK1 (Homo sapiens, UniProt O75582). Kind of test: Activity against various protein tyrosine kinases: MSK1. The conditions noted are these: read-out: % Inhibition at 10 nM.
A further test deals with T1, CHK1 (Homo sapiens, UniProt O14757).
T1 sequence (O14757 1-476): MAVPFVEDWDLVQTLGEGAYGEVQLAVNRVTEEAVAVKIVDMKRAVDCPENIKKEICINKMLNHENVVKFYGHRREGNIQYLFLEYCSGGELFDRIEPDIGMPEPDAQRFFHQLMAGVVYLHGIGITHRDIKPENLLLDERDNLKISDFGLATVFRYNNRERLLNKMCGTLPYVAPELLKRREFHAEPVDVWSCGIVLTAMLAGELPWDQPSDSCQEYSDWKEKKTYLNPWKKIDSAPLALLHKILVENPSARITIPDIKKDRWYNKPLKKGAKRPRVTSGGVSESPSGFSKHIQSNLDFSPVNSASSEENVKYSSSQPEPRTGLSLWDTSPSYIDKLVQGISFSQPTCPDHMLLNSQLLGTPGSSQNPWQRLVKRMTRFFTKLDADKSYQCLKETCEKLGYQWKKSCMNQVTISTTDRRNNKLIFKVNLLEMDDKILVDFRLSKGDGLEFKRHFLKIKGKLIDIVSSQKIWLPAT
Kind of test: Activity against various protein tyrosine kinases: CHK1. The conditions noted are these: read-out: % Inhibition at 1 μM.

Chains of the proteins cited; added tags and fusions are not shown. Residues count along the entry.
UniProt P09619, 33-1106, species assumed: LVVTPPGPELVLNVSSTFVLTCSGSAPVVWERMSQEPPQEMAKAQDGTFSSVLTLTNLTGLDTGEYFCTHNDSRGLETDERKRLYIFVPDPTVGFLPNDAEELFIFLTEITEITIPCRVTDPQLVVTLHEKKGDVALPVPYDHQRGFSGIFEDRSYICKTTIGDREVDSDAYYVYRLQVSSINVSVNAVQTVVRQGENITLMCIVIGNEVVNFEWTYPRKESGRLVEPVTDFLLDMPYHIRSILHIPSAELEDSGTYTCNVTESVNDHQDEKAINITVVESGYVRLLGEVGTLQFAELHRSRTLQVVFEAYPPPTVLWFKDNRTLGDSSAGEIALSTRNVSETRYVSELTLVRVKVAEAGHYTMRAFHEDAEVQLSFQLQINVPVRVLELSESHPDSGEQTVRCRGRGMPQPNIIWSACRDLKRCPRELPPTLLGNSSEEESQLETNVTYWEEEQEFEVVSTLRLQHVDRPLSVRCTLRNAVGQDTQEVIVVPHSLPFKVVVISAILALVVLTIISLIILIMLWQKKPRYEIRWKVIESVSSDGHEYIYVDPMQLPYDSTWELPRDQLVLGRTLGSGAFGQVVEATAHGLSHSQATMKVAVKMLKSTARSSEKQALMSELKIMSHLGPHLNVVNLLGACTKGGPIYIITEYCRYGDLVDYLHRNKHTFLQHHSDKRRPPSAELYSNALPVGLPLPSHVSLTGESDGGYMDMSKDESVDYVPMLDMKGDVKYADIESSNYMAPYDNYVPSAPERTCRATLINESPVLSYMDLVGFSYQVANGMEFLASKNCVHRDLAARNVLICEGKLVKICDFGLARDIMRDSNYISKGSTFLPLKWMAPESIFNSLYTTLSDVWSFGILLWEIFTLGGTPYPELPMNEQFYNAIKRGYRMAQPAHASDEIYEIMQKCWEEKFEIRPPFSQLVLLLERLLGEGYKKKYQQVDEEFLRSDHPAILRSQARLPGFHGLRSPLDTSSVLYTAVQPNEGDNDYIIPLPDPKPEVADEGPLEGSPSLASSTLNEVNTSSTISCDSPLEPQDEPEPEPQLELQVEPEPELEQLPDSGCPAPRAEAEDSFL
UniProt Q96GD4, whole entry: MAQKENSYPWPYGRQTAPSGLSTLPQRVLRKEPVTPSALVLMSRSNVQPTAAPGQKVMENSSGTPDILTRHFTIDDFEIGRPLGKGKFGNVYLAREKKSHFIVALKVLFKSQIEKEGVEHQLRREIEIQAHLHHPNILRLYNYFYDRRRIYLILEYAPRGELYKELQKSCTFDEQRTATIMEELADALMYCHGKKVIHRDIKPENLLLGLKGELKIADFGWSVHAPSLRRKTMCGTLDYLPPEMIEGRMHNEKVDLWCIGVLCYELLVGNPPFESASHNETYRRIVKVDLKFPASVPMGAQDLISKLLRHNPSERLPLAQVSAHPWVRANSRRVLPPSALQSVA
UniProt P16234, 24-1089, species assumed: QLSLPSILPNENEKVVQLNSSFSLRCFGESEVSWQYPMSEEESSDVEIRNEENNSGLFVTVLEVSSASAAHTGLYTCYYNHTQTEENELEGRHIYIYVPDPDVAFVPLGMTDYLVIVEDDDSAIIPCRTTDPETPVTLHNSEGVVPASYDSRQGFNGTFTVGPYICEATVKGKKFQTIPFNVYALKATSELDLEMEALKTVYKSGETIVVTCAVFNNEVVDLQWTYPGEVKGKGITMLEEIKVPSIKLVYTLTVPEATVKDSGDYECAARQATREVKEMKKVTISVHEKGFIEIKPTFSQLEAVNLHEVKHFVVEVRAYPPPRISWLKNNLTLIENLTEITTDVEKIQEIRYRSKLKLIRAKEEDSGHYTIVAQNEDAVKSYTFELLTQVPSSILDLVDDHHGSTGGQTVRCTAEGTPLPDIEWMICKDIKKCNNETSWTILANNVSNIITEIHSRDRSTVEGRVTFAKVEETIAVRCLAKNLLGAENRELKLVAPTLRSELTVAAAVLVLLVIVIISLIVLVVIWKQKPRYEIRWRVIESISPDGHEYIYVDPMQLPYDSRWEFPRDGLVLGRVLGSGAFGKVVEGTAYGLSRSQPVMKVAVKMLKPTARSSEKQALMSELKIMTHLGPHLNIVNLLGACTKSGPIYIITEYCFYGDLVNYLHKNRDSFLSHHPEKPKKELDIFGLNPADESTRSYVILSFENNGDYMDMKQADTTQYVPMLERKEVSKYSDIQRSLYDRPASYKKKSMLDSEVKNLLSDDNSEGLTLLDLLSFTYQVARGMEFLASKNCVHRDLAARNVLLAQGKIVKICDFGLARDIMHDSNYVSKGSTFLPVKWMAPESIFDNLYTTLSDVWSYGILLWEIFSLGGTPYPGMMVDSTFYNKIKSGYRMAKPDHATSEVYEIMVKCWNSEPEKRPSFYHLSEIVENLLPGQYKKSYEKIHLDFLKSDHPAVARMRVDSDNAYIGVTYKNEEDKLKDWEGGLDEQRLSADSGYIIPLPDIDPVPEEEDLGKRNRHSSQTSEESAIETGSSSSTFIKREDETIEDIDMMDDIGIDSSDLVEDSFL
UniProt O75582, whole entry, species assumed: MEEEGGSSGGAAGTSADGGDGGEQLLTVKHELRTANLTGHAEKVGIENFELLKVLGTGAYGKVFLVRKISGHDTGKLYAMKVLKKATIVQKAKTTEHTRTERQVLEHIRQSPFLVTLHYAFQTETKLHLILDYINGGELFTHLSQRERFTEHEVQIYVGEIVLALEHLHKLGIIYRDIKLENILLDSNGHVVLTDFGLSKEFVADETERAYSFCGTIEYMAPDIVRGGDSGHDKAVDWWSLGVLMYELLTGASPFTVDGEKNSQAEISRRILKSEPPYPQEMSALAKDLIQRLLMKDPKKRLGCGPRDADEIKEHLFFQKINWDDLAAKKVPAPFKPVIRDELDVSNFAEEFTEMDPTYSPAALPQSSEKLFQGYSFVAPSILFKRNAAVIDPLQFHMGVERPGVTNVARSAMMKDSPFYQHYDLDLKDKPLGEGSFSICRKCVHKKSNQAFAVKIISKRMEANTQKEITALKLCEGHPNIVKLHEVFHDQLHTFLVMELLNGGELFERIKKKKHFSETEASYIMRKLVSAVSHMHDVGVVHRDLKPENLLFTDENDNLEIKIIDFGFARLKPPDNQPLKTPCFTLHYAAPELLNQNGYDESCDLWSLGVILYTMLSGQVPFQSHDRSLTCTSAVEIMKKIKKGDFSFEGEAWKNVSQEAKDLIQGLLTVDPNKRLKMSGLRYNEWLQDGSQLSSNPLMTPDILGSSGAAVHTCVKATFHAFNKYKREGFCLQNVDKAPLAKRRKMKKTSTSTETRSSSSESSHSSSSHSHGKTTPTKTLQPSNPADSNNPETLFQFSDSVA
UniProt P49137, whole entry, species assumed: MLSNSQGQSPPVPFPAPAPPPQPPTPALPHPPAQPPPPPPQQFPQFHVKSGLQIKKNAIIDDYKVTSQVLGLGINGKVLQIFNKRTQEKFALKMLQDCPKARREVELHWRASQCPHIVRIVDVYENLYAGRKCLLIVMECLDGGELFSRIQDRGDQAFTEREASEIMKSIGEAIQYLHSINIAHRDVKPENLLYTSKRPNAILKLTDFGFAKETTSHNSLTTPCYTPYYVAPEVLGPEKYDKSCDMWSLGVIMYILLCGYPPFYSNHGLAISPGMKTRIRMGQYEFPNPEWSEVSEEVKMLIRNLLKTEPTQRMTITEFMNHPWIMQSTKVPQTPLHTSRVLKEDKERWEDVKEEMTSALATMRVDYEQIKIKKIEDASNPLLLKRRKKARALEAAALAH
UniProt P22607, 23-806, species assumed: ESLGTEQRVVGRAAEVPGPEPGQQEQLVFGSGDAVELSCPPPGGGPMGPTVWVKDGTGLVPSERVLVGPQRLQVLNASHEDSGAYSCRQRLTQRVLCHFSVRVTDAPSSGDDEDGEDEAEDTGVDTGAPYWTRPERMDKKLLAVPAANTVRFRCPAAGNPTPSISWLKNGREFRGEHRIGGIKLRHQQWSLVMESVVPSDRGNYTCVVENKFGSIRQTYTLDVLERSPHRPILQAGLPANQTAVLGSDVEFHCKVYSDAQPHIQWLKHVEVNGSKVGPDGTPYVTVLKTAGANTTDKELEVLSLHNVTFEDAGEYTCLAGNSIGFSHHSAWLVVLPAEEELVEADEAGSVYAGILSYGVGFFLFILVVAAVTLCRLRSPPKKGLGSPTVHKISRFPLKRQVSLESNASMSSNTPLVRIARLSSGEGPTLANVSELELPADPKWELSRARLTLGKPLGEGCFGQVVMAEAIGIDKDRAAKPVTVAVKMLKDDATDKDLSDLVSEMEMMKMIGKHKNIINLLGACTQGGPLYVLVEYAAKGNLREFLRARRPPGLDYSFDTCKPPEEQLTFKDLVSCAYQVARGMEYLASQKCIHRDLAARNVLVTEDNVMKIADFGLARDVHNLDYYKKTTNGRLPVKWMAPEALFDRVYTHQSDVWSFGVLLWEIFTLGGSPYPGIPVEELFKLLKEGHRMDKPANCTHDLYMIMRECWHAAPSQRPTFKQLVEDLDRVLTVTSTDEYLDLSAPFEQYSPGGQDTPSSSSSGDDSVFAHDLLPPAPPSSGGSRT

The next test concerns the target MAPKAPK2 (Homo sapiens, UniProt P49137). Kind of test: Activity against various protein tyrosine kinases: MAPKAPK2.
For the next test, the target named is FGFR3 (Homo sapiens, UniProt P22607). Briefly: Activity against various protein tyrosine kinases: FGFR3.
[1] abbreviates: read-out: % Inhibition at 10 nM.

For orientation: inhibition means the relative decrease from the control value, in per cent. With `Cc1nc(Nc2ncc(C(=O)Nc3c(C)cccc3Cl)s2)cc(N2CCN(CCO)CC2)n1` [Dasatinib, reference compound], the inhibition at 0.01 µM on PDGFR_beta (setting [1]) was 54%; at AurB it was 0%; at MSK1, 1%; on MAPKAPK2 (setting [1]), -1%; on FGFR3 (setting [1]), 2%. Besides, the inhibition at 1 µM turned out to be 100% at PDGFR_beta (read-out: % Inhibition at 1 μM); 98% at PDGFR_alpha; 0% on CHK1; 1% at MAPKAPK2 (read-out: % Inhibition at 1 μM); 9% at FGFR3 (read-out: % Inhibition at 1 μM).
